Values quoted from earlier work as cited in patent US7884133B2, “Pharmaceutical compositions containing (+) cannabidioil and derivatives thereof and some such novel derivatives” (priority 2003, dated 2011).

Amino acid sequences for entries named in this document (tags omitted).
UniProt P34972, whole entry: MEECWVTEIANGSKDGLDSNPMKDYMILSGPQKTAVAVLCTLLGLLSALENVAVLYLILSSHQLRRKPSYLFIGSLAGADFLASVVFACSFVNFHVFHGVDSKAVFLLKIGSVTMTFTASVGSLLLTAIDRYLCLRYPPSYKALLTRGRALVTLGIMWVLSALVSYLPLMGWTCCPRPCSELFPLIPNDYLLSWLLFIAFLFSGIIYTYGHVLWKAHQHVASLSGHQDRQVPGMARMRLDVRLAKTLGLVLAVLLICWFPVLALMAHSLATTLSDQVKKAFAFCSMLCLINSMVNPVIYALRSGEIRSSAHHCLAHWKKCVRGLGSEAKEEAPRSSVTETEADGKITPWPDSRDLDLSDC

Biological target: CB2 receptor (Homo sapiens, UniProt P34972)
Conditions: read-out: CB2 Receptor Binding (Ki); second value of CB1/CB2 cell; data from Bisogno et al., 2001; cited from earlier work

Question: Which Ki does the source give for C=C(C)C1CCC(C)=CC1c1c(O)cc(CCCCC)cc1O (single isomer, unassigned; (+)) [+CBD, (+)-CBD] here?
Answer: The Ki was 200 nM.
